Data taken from US20050215470A1 (Amgen, published 2005).

B1: MeO-20K-Maleimide PEG conjugate of SEQ ID NOS: 29 + 42 (peptide)
peptide: CGGGGGKKRPGFSPLGGGGGKKRPPGFSPL
modifications: 20K methoxy-PEG coupled through maleimide to the thiol of the N-terminal Cys 1 (one-pot process of Scheme 4)
notes: Built as one tandem chain X^1-Y^1 after the column head '(X^1) - (Y^1)0 or 1'

Target: T1, human bradykinin B1 receptor (human, UniProt P46663 1-353)
T1 construct: whole, on cells; For the IC50 values the receptor was stably expressed in a CHO D-/hB1/Aequorin cell line; also called hB1
T1 sequence (looked up): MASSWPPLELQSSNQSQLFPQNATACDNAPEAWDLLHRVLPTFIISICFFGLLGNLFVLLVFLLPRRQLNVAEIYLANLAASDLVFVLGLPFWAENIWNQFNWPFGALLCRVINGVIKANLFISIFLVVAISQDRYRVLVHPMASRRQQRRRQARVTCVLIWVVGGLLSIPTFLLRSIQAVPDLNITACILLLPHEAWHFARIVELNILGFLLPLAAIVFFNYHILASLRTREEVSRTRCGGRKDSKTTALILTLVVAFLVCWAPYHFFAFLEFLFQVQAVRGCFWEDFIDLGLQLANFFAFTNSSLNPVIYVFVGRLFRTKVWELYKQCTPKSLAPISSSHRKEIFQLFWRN
Experiment: binding affinity (Ki) at the human B1 receptor; assay format not described

| Binder | Ki [nM] |
| --- | --- |
| K(Tetrakis‑20K‑SPA PEG arm)KRP[Hyp]G[Gly(cPent)]S[dTic][Gly(cPent)] (also: 4 peptides per four-arm 20K PEG) | 0.14 |
| KKRP[Hyp]G[Gly(cPent)]S[dTic][Gly(cPent)] (not fully specified (N-terminus); also: 4 peptides per four-arm 20K PEG) | 0.14 |
| [dK][d2Nal]RP[Hyp]G[Gly(cPent)]S[dTic][Gly(cPent)] [SEQ ID NO: 49] | 0.77 |
| B1 | 22 |

Non-standard residues stand in square brackets, D forms with d. No end group written: not given here. Tetrakis‑20K‑SPA PEG arm = one arm of a 20 kDa four-arm PEG succinimidyl propionate (Tetrakis-20K-SPA); d2Nal = N[C@H](Cc1ccc2ccccc2c1)C(=O)O; Gly(cPent) = N[C@H](C(=O)O)C1CCCC1; Hyp = O=C(O)[C@@H]1C[C@@H](O)CN1; dTic = O=C(O)[C@H]1Cc2ccccc2CN1
